{"source": "patent US20250346582A1", "about": "“SPLEEN TYROSINE KINASE INHIBITORS AND METHODS OF USE THEREOF” (THE BOARD OF TRUSTEES OF THE UNIVERSITY OF ILLINOIS, priority 2022, published 2025)", "format_in_all_cases": "cell-based", "key": {"[1]": {"tested_on": "entospletinib-resistant MV4-11 cells", "assay": "XTT cell proliferation assay, entospletinib-resistant MV4-11 cells", "details": "Homo sapiens, MV4-11, read-out: Imax, inhibition of proliferation (XTT assay)", "protocol": "MV4-11 cells were treated with entospletinib (or WC36) to induce drug-resistance cells as reported previously^37. MV4-11 cells were incubated first with 500 nM entospletinib (or WC36) for the first week, then the drug concentration was increased 0.5 μM per week until it reached 5 μM (i.e., 10 weeks). Then the concentration was maintained at 5 μM. When the cells remained >90% viable in the presence of 5 μM (i.e., 10×IC50) entospletinib, they were considered entospletinib-resistant.\n(§1) MV4-11 or HL-60 cells were seeded into a clear-bottom 96-well plate containing varying concentrations of inhibitors in the optimal growth media described above and the mixtures were incubated for 16 h. Cells were then treated with a mixture of XTT-labeling reagents and the electron coupling reagents according to the manufacturer's protocol (Roche). After 4 h, the absorbance values at 475 nm and at 660 nm were simultaneously measured by Synergy™ Neo spectrofluorometer at 25° C. Cells with the growth media was used for background correction."}, "HL60 cells": {"tested_on": "HL60 cells", "assay": "XTT cell proliferation assay, HL60 cells", "protocol": "as §1"}, "[2]": {"molecular_target": "T1, scaffolding function of Syk (Homo sapiens, UniProt P43405)", "T1 construct": "host or cells: MV4-11 AML cells (naive and entospletinib-resistant)", "assay": "Co-immunoprecipitation with Syk, naïve MV4-11 cells", "details": "5 μM", "protocol": "(§2) MV-4-11 cells were collected by centrifugation, washed twice with phosphate phosphate-buffered saline (PBS) and resuspended in the immunoprecipitation (IP) buffer (50 mM HEPES, pH 7.4, 150 mM NaCl, 1 mM MgCl2, 1 mM EGTA, and 0.25 mM GTP) with 0.2-0.5% Triton X-100 and a protease inhibitor mix (Sigma-Aldrich). Lysates were prepared after 5 min of incubation on ice by repeated pipetting and centrifugation for 10 min at 12,000 g and at 4° C. For immunoprecipitation, the SYK-specific antibody was immobilized onto 100 μl Dynabeads/protein A (ThermoFisher) and the excess antibody was washed away by placing the tube in a DynaMag magnet and removing the supernatant. The resuspended beads were then incubated with the cell extract supernatant containing 500 μg of proteins for 1 h at 4° C. The immunoprecipitates were rinsed three times with the IP buffer and eluted with 30 μl of the sample buffer containing sodium dodecyl sulfate (SDS). For detection of proteins in total extracts (i.e., Input), 30 μg of the sample was loaded in each gel lane for western blot analysis."}, "[3]": {"molecular_target": "T1, scaffolding function of Syk", "assay": "Co-immunoprecipitation with Syk, entospletinib-resistant MV4-11 cells", "details": "5 μM", "protocol": "as §2"}}, "data": [{"smiles": "c1cn2cc(-c3ccc4cn[nH]c4c3)nc(Nc3ccc(N4CCOCC4)cc3)c2n1", "note": "[entospletinib, reference compound]", "values": [{"measurement": "inhibition at 20 µM", "setting": "[1]", "value": "≤ 50", "unit": "%"}, {"measurement": "inhibition of proliferation (XTT assay)", "setting": "HL60 cells", "value": "ineffective"}, {"measurement": "suppression of the scaffolding function of Syk (co-precipitation)", "setting": "[2]", "value": "little to no effect"}, {"measurement": "suppression of co-precipitation with Syk", "setting": "[3]", "value": "did not"}]}]}
